Target: T1, Nucleoside Transporter (Homo sapiens, UniProt Q99808)
T1 sequence (Q99808 1-456): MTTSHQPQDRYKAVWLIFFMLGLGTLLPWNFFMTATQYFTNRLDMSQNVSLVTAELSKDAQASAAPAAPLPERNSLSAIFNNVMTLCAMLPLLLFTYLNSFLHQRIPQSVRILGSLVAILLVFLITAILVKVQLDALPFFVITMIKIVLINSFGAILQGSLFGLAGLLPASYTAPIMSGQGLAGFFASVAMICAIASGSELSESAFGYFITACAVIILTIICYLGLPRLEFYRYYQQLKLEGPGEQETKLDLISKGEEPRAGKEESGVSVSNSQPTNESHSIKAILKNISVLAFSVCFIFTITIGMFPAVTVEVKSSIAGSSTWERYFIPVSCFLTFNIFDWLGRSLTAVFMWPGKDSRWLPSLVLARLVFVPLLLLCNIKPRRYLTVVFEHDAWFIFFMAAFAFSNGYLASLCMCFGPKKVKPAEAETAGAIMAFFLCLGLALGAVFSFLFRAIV
Assay: radioligand binding assay with [3H]NBTI on human erythrocyte membranes
Conditions: for Ki: read-out: Binding Nucleoside Transporter (Ki), [[…] 1.5 nM, 30' at 25° C., 50 mM Tris.HCl pH 7.4

9-benzyl-8-morpholino-6-(4-nitrobenzyl)-mercaptopurine [Example 17]
Ki: 51 nM

CNc1nc2c(SCc3ccccc3)ncnc2n1[C@@H]1O[C@H](CO)[C@@H](O)[C@H]1O [Example 1]
Ki: 28 nM

CCCCCCNc1nc2c(SCc3ccccc3)ncnc2n1[C@@H]1O[C@H](CO)[C@@H](O)[C@H]1O [Example 6]
Ki: 3.7 nM

c1ccc(Cn2c(N3CCCC3)nc3c(SCc4ccc5nonc5c4)ncnc32)cc1 [Example 18, 6 (benzo[c][1,2,5]oxadiazole-5-ylmethylsulfanyl)-9-benzyl-8-pyrrolidin-1-yl-9H-purine]
Binding Nucleoside Transporter (value printed as % in the Ki column) ([3H]NBTI 1.5 nM, test concentration not printed (footnote c missing)): 43%

Reference: patent US7781432B2 (Gruenenthal GmbH, priority 2004, dated 2010)
